The entries are a selection whose mix differs from that of the whole data set. Measured potencies and affinities stand elsewhere. Calls of active or inactive are those of the source.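 How the source made its calls: active means displacement above 50% at 20 µM plus a fluorescence interference ratio under 1.5; inactive means the rest.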
The compounds below were run against Bcl-2-like protein 10 (Homo sapiens) (UniProt Q9HD36) (assay: displacers of TR3 peptide from Bcl-B, primary screen, selectivity assay for Bfl-1 inhibitor project, biochemical, fluorescence polarization, FITC-TR3 peptide (AID 748;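 further: plate controls were wells without compound for no effect and wells lacking Bcl-B protein for full effect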)). Conditions: FP displacement of FITC-TR3 peptide from Bcl-B; at 20 µM; hits give high values.
For `CCC(CO)(C(=O)OC1CN2CCC1CC2)c1ccccc1` (stereo not given), the displacement was inactive: -0.3%. In the case of `CCOc1ncccc1C(=O)NCC1(N2CCOCC2)CCCCC1`, the displacement is reported as inactive: -4.4%. For `Fc1ccccc1NC1CCN(Cc2ccccc2)CC1`, the displacement was inactive: 7.8%. With `c1ccc(CN2CCC(Nc3ccccc3)CC2)cc1` the displacement was inactive: 4.3%. With `N/C(=N\O)c1c(N)no[n+]1[O-]` the displacement was inactive: -2.9%. With `O=C(NCC1(N2CCOCC2)CCCCC1)c1cc(=O)[nH]c2ccccc12` the displacement was inactive: -1%. `N#CC1(Nc2ccccc2)CCN(CCc2ccccc2)CC1` was tested, and the displacement was inactive: 5.1%. With `COc1ccc(NC2CCN(CCc3ccccc3)CC2)c(OC)c1` the displacement was inactive: 14.3%. `O=C(OC1CN2CCC1CC2)C1c2ccccc2Oc2ccccc21` (stereo not given) was tested, and the displacement was inactive: 2.8%. In the case of `O=C(NCC1(N2CCOCC2)CCCCC1)c1cc2ccccc2o1`, the displacement is reported as inactive: -6.8%.
